Assay results taken from EP4778920A1, “INDAZOLONE COMPOUND, PREPARATION METHOD THEREFOR, PHARMACEUTICAL COMPOSITION, AND USE” (Shanghai Institute of Materia Medica, Chinese Academy of …, priority 2023, dated 2025).

System: MV-4-11 cells
Assay: MV-4-11 cell proliferation inhibition (MTS assay)
Type: cell-based
Conditions: Homo sapiens, MV4-11, reference compounds, read-out: cell growth inhibitory activity (IC50)
Method: MV-4-11 cells were cultured in IMDM medium supplemented with 10% fetal bovine serum and collected. The cell concentration was diluted according to a 7-day incubation period, and 180 µL of cell suspension was added to each well of a 96-well plate, resulting in 2,000 cells per well. […] The test compounds were prepared from a 10 mM stock solution and serially diluted in a five-fold gradient, and 20 µL of the diluted compound solution was added to each compound-treated well (final DMSO concentration 0.2%). The cells were incubated in a 37 °C, 5% CO2 incubator for 7 days. After incubation, the reaction solution was prepared according to the MTS assay kit instructions (Promega, G5430), and 20 µL was added to each well. The plate was further incubated at 37 °C with 5% CO2 for 3-4 hours. The absorbance at 490 nm was measured using a microplate reader, and the absorbance at 690 nm was used as the background value. The final raw data were calculated as OD490 - OD690. […] The IC50 values for cell proliferation inhibition were determined using GraphPad Prism 5.0. Each experiment was repeated three times, and three parallel replicates were performed in each experiment to calculate the mean value and standard deviation.
Table 3. Inhibitory Activity of Compounds on MV-4-11 Cell Proliferation

**Q.** How did the IC50 turn out when `Nc1cccc2c1CN(C1CCC(=O)NC1=O)C2=O` (stereo not shown) [Lenalidomide, reference compound] was run?
**A.** > 20 µM
